Test results: ChEMBL document CHEMBL5537191, “Rebamipide and Derivatives are Potent, Selective Inhibitors of Histidine Phosphatase Activity of the Suppressor of T Cell Receptor Signaling Proteins” (J Med Chem, 2024)

Target: Ubiquitin-associated and SH3 domain-containing protein B (Homo sapiens) (UniProt Q8TF42)
Experiment: Inhibition of human STS-1 HP domain (369 to 636 residues) phosphatase activity expressed in Escherichia coli BL21 (DE3) using pNPP as substrate preincubated for 20 mins followed by substrate addition by absorbance based spectrophotometric analysis

SMILES | inhibition
O=C(Nc1cc(Cl)cc(Cl)c1)NC(Cc1cc(=O)[nH]c2ccccc12)C(=O)O (centres undefined) | inactive
O=C(O)c1ccccc1C(=O)NC(Cc1cc(=O)[nH]c2ccccc12)C(=O)O (centres undefined) | Active
O=C(NC(Cc1cccc2ccccc12)C(=O)O)c1ccc(Cl)cc1 (centres undefined) | inactive
O=C(NC(Cc1c[nH]c2ccccc12)C(=O)O)c1ccc(Cl)cc1 (centres undefined) | inactive
O=C(NC(Cc1cc(=O)[nH]c2ccccc12)C(=O)O)c1ccc(Cl)c([N+](=O)[O-])c1 (centres undefined) | Active
O=C(Nc1ccc(Cl)cc1)NC(Cc1cc(=O)[nH]c2ccccc12)C(=O)O (centres undefined) | inactive
O=C(NC(Cc1cc(=O)[nH]c2ccccc12)C(=O)NO)c1ccccc1 (centres undefined) | inactive
O=C(COc1ccc(Cl)cc1)NC(Cc1cc(=O)[nH]c2ccccc12)C(=O)O (centres undefined) | inactive
O=C(NC(Cc1cc(=O)[nH]c2ccccc12)C(=O)O)c1cccc(C(F)(F)F)c1 (centres undefined) | Active
O=C(NC(Cc1cc(=O)[nH]c2ccccc12)C(=O)O)c1ccc(Oc2ccc(C(=O)NC(Cc3cc(=O)[nH]c4ccccc34)C(=O)O)cc2)cc1 (centres undefined) | Active

Now from value to compound:

inhibition | SMILES
Active | Cc1ccc(C(=O)NC(Cc2cc(=O)[nH]c3ccccc23)C(=O)O)cc1 (centres undefined)
inactive | COC(=O)C(Cc1cc(=O)[nH]c2ccccc12)NC(=O)c1ccc(C)cc1 (centres undefined)
Active | O=C(NC(Cc1cc(=O)[nH]c2ccccc12)C(=O)O)c1ccccc1Cl (centres undefined)
Active | CCc1ccc(C(=O)NC(Cc2cc(=O)[nH]c3ccccc23)C(=O)O)cc1 (centres undefined)
Active | N#Cc1ccc(C(=O)NC(Cc2cc(=O)[nH]c3ccccc23)C(=O)O)cc1 (centres undefined)
Active | CCCCc1ccc(C(=O)NC(Cc2cc(=O)[nH]c3ccccc23)C(=O)O)cc1 (centres undefined)
Active | O=C(NC(Cc1cc(=O)[nH]c2ccccc12)C(=O)O)c1ccc(F)cc1 (centres undefined)
Active | O=C(NC(Cc1cc(=O)[nH]c2ccccc12)C(=O)O)c1ccc(Cl)c(Cl)c1 (centres undefined)
Active | O=C(NC(Cc1cc(=O)[nH]c2ccccc12)C(=O)O)c1cccc(Cl)c1 (centres undefined)
Active | O=C(NC(Cc1cc(=O)[nH]c2ccccc12)C(=O)O)c1ccc(F)c(F)c1 (centres undefined)
Active | COc1ccc(C(=O)NC(Cc2cc(=O)[nH]c3ccccc23)C(=O)O)cc1 (centres undefined)
inactive | Cc1ccc(C(=O)N[C@H](CSCc2cc(=O)[nH]c3ccccc23)C(=O)O)cc1
Active | O=C(NC(Cc1cc(=O)[nH]c2ccccc12)C(=O)O)c1ccc(OC(F)(F)F)cc1 (centres undefined)
Active | CCCCCCc1ccc(C(=O)NC(Cc2cc(=O)[nH]c3ccccc23)C(=O)O)cc1 (centres undefined)

The source made the active and inactive calls. The calls are words filed in the database; no cut-off is given here.
